Molecular target: human SSTR-4 (Homo sapiens, UniProt P31391)
Assay: Somatostatin receptor binding assay, hSSTR-4

Protein sequences, listed by entry. Tags and fused reporters are not part of them. Lines headed by an entry give the natural chain unless they say otherwise; changes in a name come on top.
UniProt P31391: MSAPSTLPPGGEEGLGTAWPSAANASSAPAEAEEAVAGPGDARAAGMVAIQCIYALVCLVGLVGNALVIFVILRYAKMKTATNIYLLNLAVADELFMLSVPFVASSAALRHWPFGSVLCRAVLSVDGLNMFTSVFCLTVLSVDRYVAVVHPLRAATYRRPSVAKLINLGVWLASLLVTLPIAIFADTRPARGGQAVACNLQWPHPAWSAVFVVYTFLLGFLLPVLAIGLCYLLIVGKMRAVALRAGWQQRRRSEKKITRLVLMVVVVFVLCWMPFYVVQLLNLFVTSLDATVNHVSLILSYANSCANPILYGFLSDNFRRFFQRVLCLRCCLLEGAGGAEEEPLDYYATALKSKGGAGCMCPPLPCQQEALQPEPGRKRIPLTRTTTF

C[C@@H](O)[C@@H]1NC(=O)[C@H](CCCCN)NC(=O)[C@@H](Cc2c[nH]c3ccccc23)NC(=O)[C@H](Cc2ccccc2)NC(=O)[C@H](Cc2ccccc2)NC(=O)[C@@H](N)CSSC[C@@H](C(N)=O)NC(=O)[C@H](Cc2ccccc2)NC1=O [BIM-23268, H-Cys-Phe-Phe-D-Trp-Lys-Thr-Phe-Cys-NH2]
Ki: 3.55 µM
